Measurements as given in ChEMBL document CHEMBL5053555, “Design, Synthesis, and Evaluation of Potent, Selective, and Bioavailable AKT Kinase Degraders” (J Med Chem, 2021).

System: BT-474
Test: Antiproliferative activity against human BT-474 cells assessed as growth inhibition incubated for 5 days by IncuCyte live-cell imaging analysis
Format: functional
Details: BT-474, 120 h, time 5 day

CC(C)NC[C@@H](C(=O)N1CCN(c2ncnc3c2[C@H](C)C[C@H]3O)CC1)c1ccc(Cl)cc1 [IPATASERTIB]
GI50: 300 nM
